Data taken from patent publication EP0730590B1, “ISOXAZOLINE AND ISOXAZOLE FIBRINOGEN RECEPTOR ANTAGONISTS” (Dupont Pharmaceuticals Company, priority 1993, dated 1995).

Amino acid sequences for entries named in this document (tags omitted). Chains listed by the source or under a name are the forms on record and can include a tag or linker. Residues count along the entry.
UniProt P05106, 27-788 limits assumed: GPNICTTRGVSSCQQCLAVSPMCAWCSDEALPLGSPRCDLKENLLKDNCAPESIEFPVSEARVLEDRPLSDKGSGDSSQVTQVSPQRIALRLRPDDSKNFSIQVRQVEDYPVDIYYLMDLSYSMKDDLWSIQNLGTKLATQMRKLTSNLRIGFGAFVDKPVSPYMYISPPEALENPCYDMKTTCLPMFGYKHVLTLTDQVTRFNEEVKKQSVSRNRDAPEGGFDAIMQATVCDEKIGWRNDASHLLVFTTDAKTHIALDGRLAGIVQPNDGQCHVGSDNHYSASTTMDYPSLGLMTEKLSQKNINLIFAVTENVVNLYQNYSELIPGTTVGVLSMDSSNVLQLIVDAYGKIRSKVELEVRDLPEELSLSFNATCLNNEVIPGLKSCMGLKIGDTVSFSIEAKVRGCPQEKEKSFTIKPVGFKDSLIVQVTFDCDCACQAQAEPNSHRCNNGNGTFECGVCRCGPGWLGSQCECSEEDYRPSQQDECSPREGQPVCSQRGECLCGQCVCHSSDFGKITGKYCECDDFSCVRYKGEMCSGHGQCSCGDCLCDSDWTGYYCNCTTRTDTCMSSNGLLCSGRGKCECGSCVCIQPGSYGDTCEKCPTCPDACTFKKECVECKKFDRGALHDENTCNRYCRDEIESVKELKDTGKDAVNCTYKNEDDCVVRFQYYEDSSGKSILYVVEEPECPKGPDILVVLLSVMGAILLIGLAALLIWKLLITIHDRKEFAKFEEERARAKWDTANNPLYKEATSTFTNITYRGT
UniProt P08514, with tags, fused parts or gaps limits assumed: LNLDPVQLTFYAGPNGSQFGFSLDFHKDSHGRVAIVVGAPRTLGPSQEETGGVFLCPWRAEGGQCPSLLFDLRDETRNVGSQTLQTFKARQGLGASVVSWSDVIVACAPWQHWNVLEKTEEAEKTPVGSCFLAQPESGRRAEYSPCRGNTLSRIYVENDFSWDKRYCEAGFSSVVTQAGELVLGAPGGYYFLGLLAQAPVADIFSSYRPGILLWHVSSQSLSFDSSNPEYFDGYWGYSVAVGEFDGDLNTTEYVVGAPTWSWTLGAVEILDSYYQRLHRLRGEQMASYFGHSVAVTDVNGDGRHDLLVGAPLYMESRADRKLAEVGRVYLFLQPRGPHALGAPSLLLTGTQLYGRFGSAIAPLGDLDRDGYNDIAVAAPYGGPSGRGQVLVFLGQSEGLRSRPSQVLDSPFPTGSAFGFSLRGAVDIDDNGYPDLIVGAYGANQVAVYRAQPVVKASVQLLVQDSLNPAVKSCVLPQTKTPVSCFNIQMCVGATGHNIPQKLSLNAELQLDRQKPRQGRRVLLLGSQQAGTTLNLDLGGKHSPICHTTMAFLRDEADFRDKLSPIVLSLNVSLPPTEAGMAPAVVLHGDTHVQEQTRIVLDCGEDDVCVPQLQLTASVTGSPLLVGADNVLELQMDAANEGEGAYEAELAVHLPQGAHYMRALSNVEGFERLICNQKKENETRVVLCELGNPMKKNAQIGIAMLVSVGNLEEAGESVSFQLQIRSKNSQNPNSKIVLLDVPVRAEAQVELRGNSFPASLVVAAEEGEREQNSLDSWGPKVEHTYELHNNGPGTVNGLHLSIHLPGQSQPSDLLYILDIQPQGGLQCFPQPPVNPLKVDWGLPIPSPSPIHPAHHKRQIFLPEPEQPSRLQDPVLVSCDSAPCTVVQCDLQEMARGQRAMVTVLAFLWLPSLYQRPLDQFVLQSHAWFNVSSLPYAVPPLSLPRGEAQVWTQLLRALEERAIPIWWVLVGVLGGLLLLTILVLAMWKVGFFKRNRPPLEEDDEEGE

Columns and labels:
[1] = biological target: agonist-induced platelet aggregation (Homo sapiens, UniProt P05106+P08514); test: Platelet Aggregation Assay in platelet-rich plasma (PRP); format: cell-based; conditions: read-out: Platelet Aggregation Assay IC50 (without esterase)
[2] = biological target: human platelet rich plasma (Homo sapiens, UniProt P05106+P08514); test: Platelet Aggregation Assay, ester prodrugs preincubated with porcine liver esterase; conditions: read-out: Platelet Aggregation Assay IC50 (with esterase), platelet rich plasma (PRP)

Compound | IC50 [1] | IC50 [2]
N=C(N)c1ccc(C2=NOC(CC(=O)NC(CCc3cccnc3)CC(=O)O)C2)cc1 (single isomer, unassigned) | < 10 µM | 
COC(=O)[C@H](CNC(=O)CC1CC(c2ccc(C(=N)N)cc2)=NO1)NS(=O)(=O)c1cccc(C)c1 (single isomer, unassigned) |  | < 10 µM
N=C(N)c1ccc(C2=NOC(CC(=O)NC(CCCc3ccccc3)CC(=O)O)C2)cc1 (single isomer, unassigned) | < 10 µM | 
COC(=O)CC(CN(C)C)NC(=O)CC1CC(c2ccc(C(=N)N)cc2)=NO1 (single isomer, unassigned) |  | < 10 µM
